Measurements from patent US4876269A (priority 1987, dated 1989).

Experiments:
[1] = phenylquinone writhing test (PQW), analgesic activity in mice; type: in vivo, male white mice (CF1); settings: fasted male CF1 mice, phenylquinone i.p.
[2] = test system: kappa receptor; experiment: kappa agonist-induced diuresis in rats; settings: for mean cumulative urine output at 5 hours: N = 5 rats/dose; for % increase over control (urine output): at 5 hours
[3] = test system: kappa receptor; settings: rats; literature; cited from earlier work
[4] = test system: k receptor; settings: literature; cited from earlier work
[5] = mice; general statement/literature; cited from earlier work

| Structure (SMILES) | ED50 (effective analgesic dose in 50% of the mice), p.o. [1] [mg/kg] | ED50 (effective analgesic dose in 50% of the mice), s.c. [1] [mg/kg] | other results |
| --- | --- | --- | --- |
| CCC(=O)Oc1cccc2c1CC[C@@H](N1CCCC1)[C@@H]2N(C)C(=O)Cc1ccc(Cl)c(Cl)c1.Cl (relative stereo) | 10. | 0.24 |  |
| COc1cccc2c1CC[C@@H](N1CCCC1)[C@@H]2N(C)C(=O)Cc1ccc(Cl)c(Cl)c1.Cl (relative stereo) | 6.5 | 0.46 | mean cumulative urine output at 5 hours ([2]; 0.063 mg/kg s.c.): 1.20 mL; % increase over control (urine output) ([2]; 0.063 mg/kg s.c.): 50%; mean cumulative urine output at 5 hours ([2]; 0.25 mg/kg s.c.): 3.44 mL; % increase over control (urine output) ([2]; 0.25 mg/kg s.c.): 330%; mean cumulative urine output at 5 hours ([2]; 1. mg/kg s.c.): 8.76 mL; mean cumulative urine output at 5 hours ([2]; 4. mg/kg s.c.): 10.9 mL; mean cumulative urine output at 5 hours ([2]; 16. mg/kg s.c.): 8.64 mL |
| CN(C(=O)Cc1ccc(Cl)c(Cl)c1)[C@@H]1CCCC[C@H]1N1CCCC1 (relative stereo) | 13. | 1.2 | increase in urine flow, in words [3]: significant increases in urine flow; analgesia, in words [4]: analgesic actions in a variety of assays, such as thermal, pressure and irritant; sedation [5]: sedation is characteristic; mean cumulative urine output at 5 hours ([2]; 0.063 mg/kg s.c.): 3.48 mL; % increase over control (urine output) ([2]; 0.063 mg/kg s.c.): 43%; mean cumulative urine output at 5 hours ([2]; 0.25 mg/kg s.c.): 2.84 mL; % increase over control (urine output) ([2]; 0.25 mg/kg s.c.): 16%; mean cumulative urine output at 5 hours ([2]; 1. mg/kg s.c.): 5.44 mL; mean cumulative urine output at 5 hours ([2]; 4. mg/kg s.c.): 10.5 mL; mean cumulative urine output at 5 hours ([2]; 16. mg/kg s.c.): 13.6 mL |
| CN(C(=O)Cc1ccc(Cl)c(Cl)c1)[C@@H]1c2ccc(O)cc2CC[C@H]1N1CCCC1 (relative stereo) | 4.2 | 0.032 |  |
| CN(C(=O)Cc1ccc(Cl)c(Cl)c1)[C@@H]1c2cccc(O)c2CC[C@H]1N1CCCC1.Cl (relative stereo) | 13. | 0.72 |  |
| COc1ccc2c(c1)CC[C@@H](N1CCCC1)[C@@H]2N(C)C(=O)Cc1ccc(Cl)c(Cl)c1.Cl (relative stereo) | 6.5 | 1.5 |  |
| CN(C(=O)Cc1ccc(Cl)c(Cl)c1)[C@@H]1c2ccccc2C[C@H]1N1CCCC1 (relative stereo) | 30. | 1.5 |  |
| CN(C(=O)c1ccc(Cl)c(Cl)c1)[C@@H]1Cc2ccccc2C[C@H]1N1CCCC1 (relative stereo) | 47. | 16. |  |
| CN(C(=O)Cc1ccc(Cl)c(Cl)c1)[C@@H]1c2cc(O)c(O)cc2CC[C@H]1N1CCCC1.Cl (relative stereo) | 3.3 | 0.19 |  |
| COc1cccc2c1CC[C@@H](N1CCCC1)[C@@H]2N(C)C(=O)Cc1ccc(Cl)c(Cl)c1 (relative stereo) | 7.4 | 0.33 |  |
| COc1ccc(OC)c2c1CC[C@@H](N1CCCC1)[C@@H]2N(C)C(=O)Cc1ccc(Cl)c(Cl)c1 (relative stereo) | 24. | 47. |  |
| CN(C(=O)Cc1ccc(Cl)c(Cl)c1)[C@@H]1c2cc(O)ccc2CC[C@H]1N1CCCC1 (relative stereo) | 16. | 0.46 |  |
| CN(C(=O)Cc1ccc(Cl)c(Cl)c1)[C@@H]1c2ccccc2CC[C@H]1N1CCCC1.Cl (relative stereo) | 13. | 2.7 | mean cumulative urine output at 5 hours ([2]; 0.33 mg/kg s.c.): 0.96 mL; % increase over control (urine output) ([2]; 0.33 mg/kg s.c.): -31%; mean cumulative urine output at 5 hours ([2]; 1. mg/kg s.c.): 2.24 mL; mean cumulative urine output at 5 hours ([2]; 3. mg/kg s.c.): 3.08 mL; mean cumulative urine output at 5 hours ([2]; 9. mg/kg s.c.): 6.36 mL; mean cumulative urine output at 5 hours ([2]; 27. mg/kg s.c.): 8.56 mL |
| COc1cccc2c1CC[C@@H](N1CCCC1)[C@@H]2N(C)C(=O)Cc1cccc2sccc12 (relative stereo) | 16. | 0.46 |  |
| CN(C(=O)Cc1ccc(Cl)c(Cl)c1)[C@@H]1Cc2ccccc2C[C@H]1N1CCCC1 (relative stereo) | > 81. | 47. |  |
| COc1cccc2c1CC[C@@H](N1CCCC1)[C@@H]2N(C)C(=O)Cc1ccc(Cl)c(Cl)c1 (single isomer, unassigned) | 5.2 | 0.15 |  |
| COc1ccc2c(c1OC)CC[C@@H](N1CCCC1)[C@@H]2N(C)C(=O)Cc1ccc(Cl)c(Cl)c1 (relative stereo) | 16. | 8.1 |  |
